Test results as given in the NIST ThermoML archive (doi:10.1021/je900916e).

Experiment: cn = amount concentration of the nth substance listed, in mol/dm3
Details: 101 kPa, Liquid, Advanced Conductivity Orion 162A

CCC[N+](CCC)(CCC)CCC.O=C([O-])C(F)(F)C(F)(F)C(F)(F)C(F)(F)C(F)(F)C(F)(F)C(F)(F)F [tetrapropylammonium perfluorooctanoate] + O
Details	electrical conductivity [S/m]
288.15 K, c1 = 0.000528	0.00204
288.15 K, c1 = 0.001044	0.00381
288.15 K, c1 = 0.00155	0.0055
288.15 K, c1 = 0.002046	0.00718
288.15 K, c1 = 0.002532	0.00868
288.15 K, c1 = 0.003008	0.01018
288.15 K, c1 = 0.003474	0.01159
288.15 K, c1 = 0.003931	0.01294
288.15 K, c1 = 0.00438	0.01384
288.15 K, c1 = 0.004819	0.01423
288.15 K, c1 = 0.00525	0.01452
288.15 K, c1 = 0.005674	0.01478
288.15 K, c1 = 0.006192	0.01508
288.15 K, c1 = 0.006697	0.01536
288.15 K, c1 = 0.007289	0.01569
288.15 K, c1 = 0.007865	0.01602
288.15 K, c1 = 0.008563	0.0164
288.15 K, c1 = 0.009239	0.01676
293.15 K, c1 = 0.000528	0.0023
293.15 K, c1 = 0.001044	0.00429
293.15 K, c1 = 0.00155	0.00632
293.15 K, c1 = 0.002046	0.00818
293.15 K, c1 = 0.002532	0.00994
293.15 K, c1 = 0.003008	0.01165
293.15 K, c1 = 0.003474	0.01327
293.15 K, c1 = 0.003931	0.01471
293.15 K, c1 = 0.00438	0.01537
293.15 K, c1 = 0.004819	0.01577
293.15 K, c1 = 0.00525	0.01611
293.15 K, c1 = 0.005674	0.0164
293.15 K, c1 = 0.006089	0.01668
293.15 K, c1 = 0.006597	0.01702
293.15 K, c1 = 0.007094	0.01735
293.15 K, c1 = 0.007675	0.01772
293.15 K, c1 = 0.00824	0.01806
293.15 K, c1 = 0.008791	0.0184
298.15 K, c1 = 0.000495	0.0024
298.15 K, c1 = 0.00098	0.00458
298.15 K, c1 = 0.001456	0.00662
298.15 K, c1 = 0.001923	0.00856
298.15 K, c1 = 0.002381	0.01055
298.15 K, c1 = 0.00283	0.01231
298.15 K, c1 = 0.003271	0.0142
298.15 K, c1 = 0.003704	0.01594
298.15 K, c1 = 0.004128	0.017
298.15 K, c1 = 0.004545	0.01751
298.15 K, c1 = 0.004955	0.01791
298.15 K, c1 = 0.005357	0.01828
298.15 K, c1 = 0.005752	0.01864
298.15 K, c1 = 0.00614	0.01894
298.15 K, c1 = 0.006522	0.01924
298.15 K, c1 = 0.006989	0.0196
298.15 K, c1 = 0.007447	0.01995
298.15 K, c1 = 0.007895	0.0203
298.15 K, c1 = 0.008333	0.02064
298.15 K, c1 = 0.008762	0.02098
298.15 K, c1 = 0.009182	0.0213
303.15 K, c1 = 0.000528	0.00301
303.15 K, c1 = 0.001044	0.00562
303.15 K, c1 = 0.00155	0.008
303.15 K, c1 = 0.002046	0.01044
303.15 K, c1 = 0.002532	0.01274
303.15 K, c1 = 0.003008	0.01498
303.15 K, c1 = 0.003474	0.01705
303.15 K, c1 = 0.003931	0.01837
303.15 K, c1 = 0.00438	0.01898
303.15 K, c1 = 0.004819	0.01954
303.15 K, c1 = 0.00525	0.01997
303.15 K, c1 = 0.005674	0.0204
303.15 K, c1 = 0.006294	0.0209
303.15 K, c1 = 0.006896	0.0214
303.15 K, c1 = 0.007579	0.022
303.15 K, c1 = 0.00824	0.0226
303.15 K, c1 = 0.008882	0.0231
303.15 K, c1 = 0.00959	0.0236
308.15 K, c1 = 0.000528	0.00324
308.15 K, c1 = 0.001044	0.00611
308.15 K, c1 = 0.00155	0.00888
308.15 K, c1 = 0.002046	0.01161
308.15 K, c1 = 0.002532	0.01414
308.15 K, c1 = 0.003008	0.01657
308.15 K, c1 = 0.003474	0.01894
308.15 K, c1 = 0.003931	0.0203
308.15 K, c1 = 0.00438	0.021
308.15 K, c1 = 0.004819	0.0215
308.15 K, c1 = 0.005357	0.0221
308.15 K, c1 = 0.005882	0.0227
308.15 K, c1 = 0.006496	0.0234
308.15 K, c1 = 0.007094	0.0239
308.15 K, c1 = 0.00777	0.0245
308.15 K, c1 = 0.008426	0.0252
308.15 K, c1 = 0.00915	0.0259
313.15 K, c1 = 0.000434	0.00302
313.15 K, c1 = 0.00086	0.00567
313.15 K, c1 = 0.001279	0.00818
313.15 K, c1 = 0.001691	0.01052
313.15 K, c1 = 0.002096	0.01293
313.15 K, c1 = 0.002494	0.01538
313.15 K, c1 = 0.002886	0.0176
313.15 K, c1 = 0.003271	0.01978
313.15 K, c1 = 0.00365	0.0218
313.15 K, c1 = 0.004023	0.0228
313.15 K, c1 = 0.00439	0.0234
313.15 K, c1 = 0.004751	0.024
313.15 K, c1 = 0.005257	0.0245
313.15 K, c1 = 0.005752	0.0251
313.15 K, c1 = 0.006332	0.0258
313.15 K, c1 = 0.006896	0.0265
313.15 K, c1 = 0.007447	0.0271
313.15 K, c1 = 0.008071	0.0276
318.15 K, c1 = 0.000495	0.00372
318.15 K, c1 = 0.00098	0.00708
318.15 K, c1 = 0.001456	0.01024
318.15 K, c1 = 0.001923	0.01335
318.15 K, c1 = 0.002381	0.01634
318.15 K, c1 = 0.00283	0.01918
318.15 K, c1 = 0.003271	0.0219
318.15 K, c1 = 0.003704	0.0243
318.15 K, c1 = 0.004128	0.0256
318.15 K, c1 = 0.004545	0.0263
318.15 K, c1 = 0.004955	0.0268
318.15 K, c1 = 0.005456	0.0276
318.15 K, c1 = 0.006044	0.0285
318.15 K, c1 = 0.006616	0.0291
318.15 K, c1 = 0.007173	0.0298
318.15 K, c1 = 0.007806	0.0306
318.15 K, c1 = 0.008506	0.0314
